Test results as given in ChEMBL document CHEMBL6127109, “mARC1 Is the Main Contributor to Metabolic Reduction of N-Hydroxyurea” (J Med Chem, 2024).

Substrate: NC(=O)NO
Conditions: Homo sapiens

B1: Mitochondrial amidoxime-reducing component 1 (Homo sapiens), Q5VT66 (protein)
chain: MGAAGSSALARFVLLAQSRPGWLGVAALGLTAVALGAVAWRRAWPTRRRRLLQQVGTVAQLWIYPVKSCKGVPVSEAECTAMGLRSGNLRDRFWLVINQEGNMVTARQEPRLVLISLTCDGDTLTLSAAYTKDLLLPIKTPTTNAVHKCRVHGLEIEGRDCGEATAQWITSFLKSQPYRLVHFEPHMRPRRPHQIADLFRPKDQIAYSDTSPFLILSEASLADLNSRLEKKVKATNFRPNIVISGCDVYAEDSWDELLIGDVELKRVMACSRCILTTVDPDTGVMSRKEPLETLKSYRQCDPSERKLYGKSPLFGQYFVLENPGTIKVGDPVYLLGQ
- Km: 6.7 mM
